Article PMC3087300 (Bioorganic & medicinal chemistry, 2009)
Read-outs that look alike come from different tables or passages of the source.

Amino acid sequences for entries named in this document (tags omitted). Residues count along the entry.
UniProt P07288, 25-261: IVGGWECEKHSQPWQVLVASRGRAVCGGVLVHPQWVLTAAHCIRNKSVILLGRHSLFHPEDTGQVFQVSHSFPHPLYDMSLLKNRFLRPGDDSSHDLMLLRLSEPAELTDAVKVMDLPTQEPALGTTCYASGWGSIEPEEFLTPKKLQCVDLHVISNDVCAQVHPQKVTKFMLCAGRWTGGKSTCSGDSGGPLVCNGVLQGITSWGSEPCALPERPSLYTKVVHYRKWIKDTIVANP

Columns and labels:
PSA = PSA (Homo sapiens, UniProt P07288)
chymotrypsin = chymotrypsin (Bos taurus, UniProt P00766); test: Chymotrypsin specificity assay; assay type: biochemical; conditions: read-out: Ki against chymotrypsin; data not shown
[1] = P2-P3 screen boronic acids and PSA imaging agents, Table 2
[2] = read-out: Ki for PSA, boronic acid inhibitors
[3] = N-methylated boronic acids, Table 3

## Mu-SSQn(boro)L [Compound 45]
PSA; [1]
  Ki: 25.3 ± 1.1 nM
PSA; [2]
  Ki: 25 nM

## Z-SSK ^* L(boro)L [Compound 48]
PSA
  fold increase in Ki for PSA relative to parent inhibitor 1: 38 fold
PSA; [3]
  Ki: 2500 ± 100 nM

## Z-SSKn(boro)L [Compound 43]
PSA; [1]
  Ki: 48.4 ± 3.6 nM

## Z-S ^* SK ^* L(boro)L [Compound 51]
PSA; [3]
  Ki: 5600 ± 100 nM

## Z-SSQn(boro)L [Compound 44]
chymotrypsin
  Ki: 211 nM
PSA; [1]
  Ki: 27.5 ± 2.4 nM
PSA; [2]
  Ki: 27 nM
